Test system: Trypanosoma brucei rhodesiense STIB 900
Assay: In vitro activity against T. brucei rhodesiense bloodstream forms (Alamar blue)
Format: cell-based
Settings: ratio of cytotoxic IC50 (L6) over IC50 against Tbr
Experimental: Trypanosoma brucei rhodesiense and cytotoxicity against L6 cells. Minimum Essential Medium with Earle’s salts (50 µL) supplemented with 0.2 mM 2-mercapto-ethanol, 1 mM Na-pyruvate and 15% heat-inactivated horse serum was added to each well of a 96-well microtiter plate. […] Then 10^4 bloodstream forms of Trypanosoma brucei rhodesiense STIB 900 in 50 µL of medium were added to each well and the plate incubated at 37°C under a 5% CO2 atmosphere for 72 hours. […] The plate was then read in a Spectramax Gemini XS microplate fluorometer (Molecular Devices Corporation, Sunnyvale, CA, USA) using an excitation wavelength of 536 nm and emission wavelength of 588 nm. Fluorescence development was measured and expressed as percentage of the control. Data were transferred into the graphic programme Softmax Pro (Molecular Devices) which calculated IC50 values. Cytotoxicity was assessed using a similar protocol and rat skeletal myoblasts (L6 cells). […] All following steps were according to the T. b. rhodesiense protocol.

C=C1C(=O)O[C@@H]2C[C@@H](C)[C@@H]3C=CC(=O)[C@@]3(C)[C@@H](O)[C@H]12 [Compound 1, helenalin]
selectivity index (SI) with respect to Tbr: 19
selectivity index (SI) with respect to Tbr (listed as helenalin): about 10

Source: article PMC6254286, “Quantitative Structure − Antiprotozoal Activity Relationships of Sesquiterpene Lactones ^†” (Molecules, 2009)
